Among the data in US5834521A, “Substituted dibenz (A F)azulenes and methods of preparation” (Ortho Pharmaceutical Corporation, priority 1996, dated 1998) are IC50 values, retold here.

Amino acid sequences for entries named in this document (tags omitted).
UniProt P06186, whole entry: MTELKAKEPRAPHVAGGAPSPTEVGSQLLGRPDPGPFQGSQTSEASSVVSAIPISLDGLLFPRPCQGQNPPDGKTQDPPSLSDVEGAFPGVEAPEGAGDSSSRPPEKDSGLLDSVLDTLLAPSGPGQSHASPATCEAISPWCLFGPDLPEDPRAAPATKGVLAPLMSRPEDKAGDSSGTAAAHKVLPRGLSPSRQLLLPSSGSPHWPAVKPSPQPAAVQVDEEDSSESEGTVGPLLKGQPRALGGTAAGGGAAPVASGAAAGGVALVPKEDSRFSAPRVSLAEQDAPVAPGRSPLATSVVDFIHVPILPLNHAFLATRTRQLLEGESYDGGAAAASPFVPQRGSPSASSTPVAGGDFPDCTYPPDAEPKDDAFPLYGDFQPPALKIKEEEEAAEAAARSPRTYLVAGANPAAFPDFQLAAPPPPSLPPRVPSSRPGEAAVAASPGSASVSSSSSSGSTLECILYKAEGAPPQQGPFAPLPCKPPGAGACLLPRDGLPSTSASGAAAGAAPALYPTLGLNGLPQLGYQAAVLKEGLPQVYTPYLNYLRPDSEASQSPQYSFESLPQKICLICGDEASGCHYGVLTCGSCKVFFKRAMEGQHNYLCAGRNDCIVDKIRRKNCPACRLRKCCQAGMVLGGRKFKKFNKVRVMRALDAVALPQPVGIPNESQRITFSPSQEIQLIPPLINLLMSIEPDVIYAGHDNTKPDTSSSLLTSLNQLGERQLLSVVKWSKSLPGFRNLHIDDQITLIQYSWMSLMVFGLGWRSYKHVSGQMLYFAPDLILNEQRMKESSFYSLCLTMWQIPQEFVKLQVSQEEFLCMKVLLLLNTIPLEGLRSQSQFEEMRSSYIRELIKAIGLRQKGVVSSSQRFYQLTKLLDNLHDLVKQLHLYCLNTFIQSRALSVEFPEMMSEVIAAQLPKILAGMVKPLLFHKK

The experiment has as its target Progestin Receptor (Oryctolagus cuniculus, UniProt P06186). In words: Progestin Receptor Binding (competitive binding, 3H-promegestone, rabbit uterus receptor preparation). As to conditions: 3H-promegestone displacement, 4° C., 18 h.

What is called IC50 is the midpoint of a concentration-inhibition curve. Higher therefore signals a need for much substance. On to `COc1ccc2c(c1)CC1(C)Cc3cc(OC)ccc3C1=CC2` (stereo not shown), for which the IC50 was found to be 10 µM.
